By inhibition is commonly meant the relative decrease from the control value, in per cent.

One compound from ChEMBL document CHEMBL1150306, “2-Trifluoroacetylthiophenes, a novel series of potent and selective class II histone deacetylase inhibitors” (Bioorg Med Chem Lett, 2008) can be followed below.

The nature of this assay: Inhibition of HDAC3 at 50 uM.

SMILES strings stand for the structures.

Turning to `CN(Cc1ccc2nccnc2c1)C(=O)c1ccc(C(=O)C(F)(F)F)s1`, the inhibition stood at 40%.
